Measured values taken from patent publication US20260384404A1, “CRYSTALLINE FORMS, AND PROCESSES FOR THEIR PRODUCTION” (published 2026).

Key:
[1] = General statements on stability and glass transition of the solid forms; settings: general statement
[2] = Thermogravimetric analysis (TG)
Procedure: The analyses were performed using a Mettler-Toledo TGA/DSC3+ simultaneous system with autosampler, using closed aluminium crucibles (100 μl volume) with a pinhole. The TG/DSC signals were recorded from 30 to 250 °C with linear heating rate (10 °C/min) under a 150 ml/min nitrogen flow. About 10 mg of powder was used for each measurement.

[3] = Accelerated stability studies (storage, HPLC assay, water content, impurities, XRPD)
Procedure: Instrument: The diffraction pattern was recorded with a Bruker D8-Advance diffractometer.
• Tube anode: Cu • Generator tension (kV): 40 • Generator current (mA): 40 • Wavelengths α1 and α2 (Å): 1.54056, 1.54439 • Intensity ratio (α2/α1): 0.500 • Spinner: off • Angular range (2θ°): 3.00-50.00 • Step size (2θ°): 0.020 • Time per step (sec): 0.50
The purity of the reference material was determined by High Performance Liquid Chromatography (HPLC).
Instrument: UHPLC Agilent 1290 Infinity II (dwell volume<150 μl, max system pressure 18000 psi) equipped with G7117A DAD Detector, Thermostated Column Compartment and Cooling Sample Manager Compartment.
• Column: Halo RP-Amide (150×4.6 mm, 2.7 μm; P/N: 92814-707) • Flow: 1.0 ml/min—Injection Volume: 10.0 μl • Column Temperature: 10 °C—Detector Wavelength: 249 nm • Sample Concentration: 1 mg/ml in Acetonitrile • Solvent A: Water+0.1% formic acid/THF 95/5 (V/V) • Solvent B: Acetonitrile+0.1% formic acid/THF 95/5 (V/V)
EBC-1013 crystalline form I and amorphous EBC-1013 were subjected to accelerated stability studies, being assayed after storage for 1 month at 2-8 °C, 25 °C at 60% relative humidity, and at 40 °C at 75% relative humidity. Data for EBC-1013 crystalline form I was also collected at 3 months.

[4] = Dynamic Vapor Sorption (DVS) / hygroscopicity; settings: for hygroscopicity / uptake of water: general statement; for Change in Mass (%): 25 °C
Procedure: DVS Intrinsic1 system (Surface Measurement Systems Ltd UK) with Intrinsic Control Software and software DVS Analysis Suite for elaboration.
The analysis was run at a fixed temperature of 25±0.1 °C.
The sample was dried for 6 hours under a continuous flow of dry air (Relative Humidity, RH<0.1%) to establish the dry mass (preconditioning step).
The relative humidity was then increased from 0% to 90% RH (in 10% RH steps) and then decreased to 0% RH in a similar way, until the completion of two full sorption/desorption cycles. The instrument was run in a dm/dt mode (mass variation over time variation) and a fixed dm/dt value of 0.002%/min was selected, in order to let equilibrium to be reached at each step.
A maximum dm/dt stage time of 3 hours along with minimum dm/dt stability duration of one hour were chosen. In the last step the samples were kept for 3 hours under a flow of dry air necessary for the weight equilibration.
The hygroscopicity of the sample is determined using the following equation:
Weight change=100×[(W2−W1)/W1]
Where: • W1=weight of sample at the start of the experiment (25 °C, 40% RH) • W2=weight of sample at 25 °C at 80% RH in the first absorption cycle • (see V. Murikipudi et al., Pharmaceutical Development and Technology, 2013; 18(2): 348-358)

[5] = Solubility in various solvents at room temperature (European Pharmacopoeia 5.11)
Procedure: Method: According to European Pharmacopoeia (EP) paragraph 5.11, the solubility of EBC-1013 was determined in different solvents at room temperature. For methanol, acetonitrile and propylene glycol, in a proper flask, about 20 mg of EBC-1013 was accurately weighed. For all other solvents, in a proper flask, about 10 mg of EBC-1013 was accurately weighed.
The solubility of 10 mg batches of EBC-1013 crystalline form I in various solvents was analysed.

## CCCCCC(=O)O[C@@H]1[C@@H](C)[C@@]2(O)[C@H]([C@@H]3C(C)(C)[C@]13OC(=O)CCCCC)[C@@H]1O[C@]1(CO)[C@@H](O)[C@]1(O)C(=O)C(C)=C[C@H]12 [Amorphous]
[1]
  glass-transition temperature: low
[1]; listed as amorphous material
  stability: limited chemical and physical stability
[2]; TG, 10K/min
  Degradation temperature: above 260 °C
[2]; range 25-80 °C, 10K/min
  TG weight loss: 0.39%
[3]; 1 month 2-8 °C
  Appearance: Pale yellow
  HPLC Assay: 95.2
  HPLC Assay a.s.f.: 95.5
  Total impurities: 0.73
  Water content (KF Coulometric): 0.29
  XRPD (solid form on storage): Amorphous
[3]; 1 month 25 °C 60% RH
  Appearance: Orange
  HPLC Assay: 96.1
  HPLC Assay a.s.f.: 96.2
  Total impurities: 0.68
  Water content (KF Coulometric): 0.13
  XRPD (solid form on storage): Amorphous
[3]; 1 month 40 °C 75% RH
  Appearance: Pale yellow
  HPLC Assay: 95.9
  HPLC Assay a.s.f.: 96.2
  Total impurities: 0.60
  Water content (KF Coulometric): 0.21
  XRPD (solid form on storage): Amorphous
[3]; T0
  Appearance: Pale yellow
  HPLC Assay: 96.2
  HPLC Assay a.s.f.: 96.4
  Total impurities: 0.68
  Water content (KF Coulometric): 0.17
  XRPD (solid form on storage): Amorphous
[4]; listed as amorphous material
  hygroscopicity / uptake of water: hygroscopicity

## CCCCCC(=O)O[C@@H]1[C@@H](C)[C@@]2(O)[C@H]([C@@H]3C(C)(C)[C@]13OC(=O)CCCCC)[C@@H]1O[C@]1(CO)[C@@H](O)[C@]1(O)C(=O)C(C)=C[C@H]12 [Form I]
[1]; listed as Crystalline form I
  stability: good stability
[2]; 10 °C/min, typical batch
  TG loss of weight: less than 0.01%
[2]; during heating to 100 °C
  TG loss of mass: low loss of mass
[5]; Acetone
  Approximate volume of solvent in ml per g of solute: From 1 to 10: 10 ml per g of solute
  Solubility: Freely soluble (From 1 to 10)
  Volume: 0.1 mL
[5]; Acetonitrile
  Approximate volume of solvent in ml per g of solute: From 30 to 100: 99 ml per g of solute
  Solubility: Sparingly soluble (From 30 to 100)
  Volume: 2 mL
[5]; Ethanol
  Approximate volume of solvent in ml per g of solute: From 1 to 10: 10 ml per g of solute
  Solubility: Freely soluble (From 1 to 10)
  Volume: 0.1 mL
[5]; Ethyl Acetate
  Approximate volume of solvent in ml per g of solute: From 1 to 10: 9 ml per g of solute
  Solubility: Freely soluble (From 1 to 10)
  Volume: 0.1 mL
[5]; Methanol
  Approximate volume of solvent in ml per g of solute: From 100 to 1000: 938 ml per g of solute
  Solubility: Slightly soluble (From 100 to 1000)
  Volume: 20 mL
[5]; Propylene glycol
  Approximate volume of solvent in ml per g of solute: From 10 to 30: 14 ml per g of solute
  Solubility: Soluble (From 10 to 30)
  Volume: 0.3 mL
[5]; Water
  Approximate volume of solvent in ml per g of solute: More than 10000: 11100 ml per g of solute
  Solubility: Practically
  Volume: 110 mL
[5]; n-Heptane
  Approximate volume of solvent in ml per g of solute: More than 10000: 10967 ml per g of solute
  Solubility: Practically
  Volume: 110 mL
[3]; 1 month 2-8 °C
  Appearance: Off-white
  HPLC Assay: 99.0
  HPLC Assay a.s.f.: 99.1
  Total impurities: 0.05
  Water content (KF Coulometric): 0.03
  XRPD (solid form on storage): Form I
[3]; 1 month 25 °C 60% RH
  Appearance: Off-white
  HPLC Assay: 99.7
  HPLC Assay a.s.f.: 99.8
  Total impurities: <0.05
  Water content (KF Coulometric): 0.03
  XRPD (solid form on storage): Form I
[3]; 1 month 40 °C 75% RH
  Appearance: Off-white
  HPLC Assay: 99.5
  HPLC Assay a.s.f.: 99.5
  Total impurities: <0.05
  Water content (KF Coulometric): 0.04
  XRPD (solid form on storage): Form I
[3]; 3 months 2-8 °C
  Appearance: Off-white
  HPLC Assay: 101.1
  HPLC Assay a.s.f.: 101.2
  Total impurities: <0.05
  Water content (KF Coulometric): 0.08
  XRPD (solid form on storage): Form I
[3]; 3 months 25 °C 60% RH
  Appearance: Off-white
  HPLC Assay: 98.8
  HPLC Assay a.s.f.: 98.9
  Total impurities: 0.11
  Water content (KF Coulometric): 0.11
  XRPD (solid form on storage): Form I
[3]; 3 months 40 °C 75% RH
  Appearance: Off-white
  HPLC Assay: 98.3
  HPLC Assay a.s.f.: 98.4
  Total impurities: 0.06
  Water content (KF Coulometric): 0.13
  XRPD (solid form on storage): Form I
[3]; T0
  Appearance: Off-white
  HPLC Assay: 99.7
  HPLC Assay a.s.f.: 99.8
  Total impurities: 0.14
  Water content (KF Coulometric): 0.04
  XRPD (solid form on storage): Form I
[3]; up to 3 months, including higher temperatures and higher relative humidity
  stability on storage: stable
[4]
  hygroscopicity classification: not hygroscopic
[4]; 30% relative humidity
  Change in Mass (%): 0.0%
[4]; 60% relative humidity
  Change in Mass (%): 0.02%
[4]; 90% relative humidity
  Change in Mass (%): 0.08%
[4]; listed as Crystalline form I
  hygroscopicity / uptake of water: low hygroscopicity
[4]; listed as form I crystalline form
  hygroscopicity / uptake of water: relatively low uptake of water
